Experimental data taken from ChEMBL document CHEMBL3585309, “Peroxisome Proliferator-Activated Receptor γ (PPARγ) and Ligand Choreography: Newcomers Take the Stage” (J Med Chem, 2015).

By UniProt entry, the sequences of proteins in these tests, tags left out. Where a name states a change or a piece, a line headed by the entry shows the natural chain unless it says otherwise.
UniProt P37231: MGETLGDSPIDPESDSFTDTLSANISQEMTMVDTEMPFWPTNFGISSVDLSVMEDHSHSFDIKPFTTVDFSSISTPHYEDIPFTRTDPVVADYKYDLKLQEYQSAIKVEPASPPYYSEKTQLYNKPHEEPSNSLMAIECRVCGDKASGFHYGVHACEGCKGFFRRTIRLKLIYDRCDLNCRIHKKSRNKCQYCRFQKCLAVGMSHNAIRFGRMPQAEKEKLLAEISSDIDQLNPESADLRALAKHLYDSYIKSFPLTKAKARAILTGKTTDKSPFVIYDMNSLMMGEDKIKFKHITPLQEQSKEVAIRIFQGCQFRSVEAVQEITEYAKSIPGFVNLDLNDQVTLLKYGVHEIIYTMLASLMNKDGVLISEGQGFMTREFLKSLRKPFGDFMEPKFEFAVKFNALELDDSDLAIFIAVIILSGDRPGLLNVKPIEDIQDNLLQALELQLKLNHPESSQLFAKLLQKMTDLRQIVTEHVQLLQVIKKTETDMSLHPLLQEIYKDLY

Biological target: Peroxisome proliferator-activated receptor gamma (Homo sapiens, UniProt P37231)
Test: Activity at human PPARgamma transfected in HEK293 cells assessed as transactivation activity after 24 hrs by Dual-luciferase reporter gene assay
Type: cell-based

Q: With Cc1c(C)n(Cc2ccc(-c3ccccc3C(=O)O)cc2)c2ccc(C(=O)NCc3cccnc3)cc12 as the molecule, how does the %max read?
A: 0%
